Measured affinities in a library of Ab-14 light chain variants

Antigen: PDVDLGDISGINAS, a 14-residue peptide of the SARS-CoV-2 spike HR2 region.

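The starting antibody came from a phage panning campaign against this peptide. Designed CDR sequences, proposed from the first random library and measured here. Several design methods are mixed in this list. The assay is AlphaSeq: two haploid yeast populations carry antibody and antigen on their surface. Mating (16 h, 30 °C) was followed by selection of diploids and sequencing of their barcodes. Each replicate has its own calibration line, from reference interactions of the BCL2 family. Mating was done six times.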

The variants keep the heavy chain, the linker and the frameworks of Ab-14 (scFv order VH, a (GGGGS)3 linker, VL).
VH: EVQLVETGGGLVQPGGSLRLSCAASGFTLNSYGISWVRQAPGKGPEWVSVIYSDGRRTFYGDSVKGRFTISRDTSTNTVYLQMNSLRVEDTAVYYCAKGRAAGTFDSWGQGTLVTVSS
VL: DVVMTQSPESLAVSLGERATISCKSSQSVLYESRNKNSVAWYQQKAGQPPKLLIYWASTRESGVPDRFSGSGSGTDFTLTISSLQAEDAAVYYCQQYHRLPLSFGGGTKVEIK

Each variant's VL is given in full. This list holds designs with more than six substitutions. Each Kd is an estimate from the mating assay, the geometric mean of the replicates in which the pair was seen; lower is stronger. "nd" means that the variant was in the library but no mating with the target was seen in any replicate; the authors take this as a sign of poor binding, and no number exists. A sequence measured in both rounds can read differently, since the two assays cover different ranges. The authors averaged sequences with at least three values out of six and counted those with two or fewer as poor binders. Nonspecific signal, from three strains lacking the peptide, appeared in 4% of pairings of all light chain designs, centred on 430 nM (5% of these signals below 38 nM); values are not corrected for it. For each scFv, signals with the empty controls are counted beside the result.

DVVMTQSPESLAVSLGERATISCKVSEFMRGLMKLKDSIAWYQQKAGQPPKLLIYDNETRGAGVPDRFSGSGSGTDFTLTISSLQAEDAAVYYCQQYDRLPLSFGGGTKVEIK: 62 nM (5 of 6 replicates; controls 1 of 18).
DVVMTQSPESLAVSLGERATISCKISQMVRVGTTHGNSIAWYQQKAGQPPKLLIYEEATRAKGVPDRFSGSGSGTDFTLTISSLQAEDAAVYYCQQYHRLPLAFGGGTKVEIK: 2.5 nM (6 of 6 replicates; controls 0 of 18).
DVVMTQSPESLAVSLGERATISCKLSWKSLHGDDRWSAVAWYQQKAGQPPKLLIYNESVRLAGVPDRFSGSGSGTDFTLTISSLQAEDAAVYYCQQYFRLPIQFGGGTKVEIK: 5.5 nM (6 of 6 replicates; controls 2 of 18).
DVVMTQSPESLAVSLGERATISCKVSSAFLYEQRNKNSVAWYQQKAGQPPKLLIYQASQRESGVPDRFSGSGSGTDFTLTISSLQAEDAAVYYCQQYHRLPLSFGGGTKVEIK: 1.3 nM (6 of 6 replicates; controls 2 of 18).
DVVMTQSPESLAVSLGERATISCKLMQEMLYESRLANSVAWYQQKAGQPPKLLIYNASQRLEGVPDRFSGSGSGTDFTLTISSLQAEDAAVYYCQQYHRLPLSFGGGTKVEIK: 6.4 nM (6 of 6 replicates; controls 1 of 18).
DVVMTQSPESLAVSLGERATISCQLDQAYRVGGLWKQSIAWYQQKAGQPPKLLIYHGSMRVQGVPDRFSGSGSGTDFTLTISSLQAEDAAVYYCQCYERLPLSFGGGTKVEIK: 230 nM (5 of 6 replicates; controls 1 of 18).
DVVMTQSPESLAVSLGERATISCKIELDLTRYNNSYSAIAWYQQKAGQPPKLLIYGETQKAQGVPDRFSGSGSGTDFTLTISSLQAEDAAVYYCQQYSRLPLVFGGGTKVEIK: 27 nM (6 of 6 replicates; controls 0 of 18).
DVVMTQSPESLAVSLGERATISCMISQLMNMGYFAINSVAWYQQKAGQPPKLLIYQASLRCNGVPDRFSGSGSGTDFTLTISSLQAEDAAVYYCQQYDRLPLMFGGGTKVEIK: nd (0 of 6 replicates; controls 0 of 18).
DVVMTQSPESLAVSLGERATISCMMSSLMGYESRHINNVAWYQQKAGQPPKLLIYQTSTREQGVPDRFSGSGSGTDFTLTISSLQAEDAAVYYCQQYDRLPLVFGGGTKVEIK: 1.3 nM (6 of 6 replicates; controls 1 of 18).
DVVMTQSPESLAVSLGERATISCKLSLSTSYLSVNKNSVAWYQQKAGQPPKLLIYEMSTRGNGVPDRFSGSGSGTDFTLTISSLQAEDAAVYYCQQYDRLPLSFGGGTKVEIK: 4.4 nM (6 of 6 replicates; controls 0 of 18).
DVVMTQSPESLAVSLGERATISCMISQLYNMGQFAINSVAWYQQKAGQPPKLLIYQAEERYNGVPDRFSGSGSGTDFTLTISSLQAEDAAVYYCQQYDRLPLMFGGGTKVEIK: 1.1 µM (4 of 6 replicates; controls 0 of 18).
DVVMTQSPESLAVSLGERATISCSISGFMKSLSAHINSVAWYQQKAGQPPKLLIYDMTNREDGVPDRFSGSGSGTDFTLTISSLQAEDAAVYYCQQYERLPLSFGGGTKVEIK: 1.6 nM (6 of 6 replicates; controls 1 of 18).
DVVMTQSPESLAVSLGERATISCKLQSVTGTEKVHGNNVAWYQQKAGQPPKLLIYEMETREKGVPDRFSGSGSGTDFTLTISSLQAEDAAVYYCQQYNRLPLAFGGGTKVEIK: 14 nM (6 of 6 replicates; controls 0 of 18).
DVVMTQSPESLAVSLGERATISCIISGSTLMESRNKNSVAWYQQKAGQPPKLLIYNAETREYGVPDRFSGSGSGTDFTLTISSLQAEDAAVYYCQHYDRLPLSFGGGTKVEIK: 27 nM (6 of 6 replicates; controls 0 of 18).
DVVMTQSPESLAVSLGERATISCTLSQMSGVEAVKHNSVAWYQQKAGQPPKLLIYENSTRENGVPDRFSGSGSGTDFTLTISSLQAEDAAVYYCQQYDRLPLSFGGGTKVEIK: 700 nM (5 of 6 replicates; controls 1 of 18).
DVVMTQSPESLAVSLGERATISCHMMMYSEMQNIIQNNIAWYQQKAGQPPKLLIYDAMTRVTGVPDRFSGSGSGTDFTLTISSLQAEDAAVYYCQQYQHLPLSFGGGTKVEIK: 1.2 nM (6 of 6 replicates; controls 4 of 18).

Picked from the list: the 2 lowest averages where every replicate gave a value.

VL,Kd (apparent),detected,empty controls
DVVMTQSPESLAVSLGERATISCHMMMYSEMQNIIQNNIAWYQQKAGQPPKLLIYDAMTRVTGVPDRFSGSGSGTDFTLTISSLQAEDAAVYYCQQYQHLPLSFGGGTKVEIK,1.2 nM,6/6,4/18
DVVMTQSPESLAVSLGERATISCKVSSAFLYEQRNKNSVAWYQQKAGQPPKLLIYQASQRESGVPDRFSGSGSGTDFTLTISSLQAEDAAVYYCQQYHRLPLSFGGGTKVEIK,1.3 nM,6/6,2/18

Data: MIT Lincoln Laboratory AlphaSeq set, Li et al. 2023, doi:10.1038/s41467-023-39022-2, as distributed in FLAb.